Assay [1] has as its target T1, Muscarinic acetylcholine receptor M1 (Mus musculus, UniProt P12657).
T1 sequence (P12657 whole entry): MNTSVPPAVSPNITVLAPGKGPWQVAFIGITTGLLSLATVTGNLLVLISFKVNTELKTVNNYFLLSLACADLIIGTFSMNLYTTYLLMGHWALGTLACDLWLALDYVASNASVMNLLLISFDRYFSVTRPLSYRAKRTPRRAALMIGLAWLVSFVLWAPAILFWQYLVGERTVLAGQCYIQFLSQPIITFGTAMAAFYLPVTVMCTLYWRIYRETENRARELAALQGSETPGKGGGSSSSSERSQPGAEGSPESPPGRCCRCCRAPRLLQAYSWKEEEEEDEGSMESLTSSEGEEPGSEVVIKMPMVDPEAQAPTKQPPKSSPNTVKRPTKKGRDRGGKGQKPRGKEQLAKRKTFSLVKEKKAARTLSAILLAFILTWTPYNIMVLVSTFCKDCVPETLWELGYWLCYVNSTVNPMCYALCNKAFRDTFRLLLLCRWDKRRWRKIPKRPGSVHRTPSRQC
Briefly: biochemical.

The target of assay [2] is T1, Muscarinic acetylcholine receptor M1. Description: biochemical. The source holds these as a separate data set.

For orientation: Ki means a measure of affinity in units of concentration, obtained from inhibition or displacement. `C[N+](C)(C)CCOC(N)=O.[Cl-]` [CARBACHOL]: the inhibition constant (Ki) was 739 nM in assay [1] and 19.9 nM in assay [2].

The record behind these values is ChEMBL document CHEMBL1129993, “Synthesis and biological characterization of 1,4,5,6-tetrahydropyrimidine and 2-amino-3,4,5,6-tetrahydropyridine derivatives as selective m1 agonists” (J Med Chem, 1997).
